Measured values as given in article PMC12443469.

What was measured:
[1] = target: human cytoskeletal β‐actin variant p.R196C (human) (UniProt P60709)
[2] = target: human cytoskeletal β‐actin variant p.R196H (human) (UniProt P60709)
[3] = target: human cytoskeletal β‐actin variant p.R196S (human) (UniProt P60709)
[4] = target: human cytoskeletal β‐actin wild‐type (human) (UniProt P60709)
[5] = target: human myosin‐5A HMM‐like construct with calmodulin (human) (UniProt P0DP23)

Row | Substance | bulk‐polymerization rate k obs of 2 μM pyrene actin with 5 to 40 nM Arp2/3 (+200 nM GST‐N‐WASP‐VCA) [1] [s⁻¹] | lag‐time t lag of 2 μM pyrene actin with 5 to 40 nM Arp2/3 (+200 nM GST‐N‐WASP‐VCA); falls with rising Arp2/3 [1] [s] | bulk‐polymerization rate k obs of 2 μM pyrene actin with 5 to 40 nM Arp2/3 (+200 nM GST‐N‐WASP‐VCA) [2] [s⁻¹] | lag‐time t lag of 2 μM pyrene actin with 5 to 40 nM Arp2/3 (+200 nM GST‐N‐WASP‐VCA); falls with rising Arp2/3 [2] [s] | bulk‐polymerization rate k obs of 2 μM pyrene actin with 5 to 40 nM Arp2/3 (+200 nM GST‐N‐WASP‐VCA) [3] [s⁻¹] | lag‐time t lag of 2 μM pyrene actin with 5 to 40 nM Arp2/3 (+200 nM GST‐N‐WASP‐VCA); falls with rising Arp2/3 [3] [s] | bulk‐polymerization rate k obs of 2 μM pyrene actin with 5 to 40 nM Arp2/3 (+200 nM GST‐N‐WASP‐VCA) [4] [s⁻¹] | lag‐time t lag of 2 μM pyrene actin with 5 to 40 nM Arp2/3 (+200 nM GST‐N‐WASP‐VCA); falls with rising Arp2/3 [4] [s] | average sliding velocity of TRITC phalloidin‐labelled filaments on surface‐immobilized Myo5A‐HMM, unloaded in vitro motility assay, 37 °C [5] [nm/s]
1 | human Arp2/3 complex (from UniProt P61160 1-394; P61158 1-418; O15143 1-372; O15144 1-300; O15145 1-178; P59998 1-168; O15511 1-151) | 1.63 | 81 | 0.411 | 332 | 1.4 | 113 | 2.75 | 29 | –
2 | human cytoskeletal β‐actin variant p.R196H (from UniProt P60709 1-375) (natural protein) | – | – | – | – | – | – | – | – | 457
3 | human cytoskeletal β‐actin wild‐type (from UniProt P60709 1-375) (natural protein) | – | – | – | – | – | – | – | – | 352
